Data: US8399482B2, “6-substituted isoquinolines and isoquinolinones” (Sanofi, priority 2008, dated 2013)

By UniProt entry, the sequences of proteins in these tests, tags left out. Residues count along the entry.
UniProt O75116, 11-552 limits assumed: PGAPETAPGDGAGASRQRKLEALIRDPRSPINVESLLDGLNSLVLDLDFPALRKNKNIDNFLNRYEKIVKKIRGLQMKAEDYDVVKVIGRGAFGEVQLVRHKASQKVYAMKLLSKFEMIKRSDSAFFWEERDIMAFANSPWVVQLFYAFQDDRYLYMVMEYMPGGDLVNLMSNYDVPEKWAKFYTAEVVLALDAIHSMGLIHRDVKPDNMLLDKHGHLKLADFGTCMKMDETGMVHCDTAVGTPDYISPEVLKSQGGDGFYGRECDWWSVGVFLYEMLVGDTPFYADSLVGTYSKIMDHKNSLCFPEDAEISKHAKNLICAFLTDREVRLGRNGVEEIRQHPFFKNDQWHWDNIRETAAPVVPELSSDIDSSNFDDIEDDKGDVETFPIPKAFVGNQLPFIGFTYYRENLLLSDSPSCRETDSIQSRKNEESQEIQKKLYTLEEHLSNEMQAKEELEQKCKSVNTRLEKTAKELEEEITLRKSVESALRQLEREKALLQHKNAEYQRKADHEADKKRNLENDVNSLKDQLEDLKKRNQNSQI
UniProt Q13976, 1-686 isoform 2: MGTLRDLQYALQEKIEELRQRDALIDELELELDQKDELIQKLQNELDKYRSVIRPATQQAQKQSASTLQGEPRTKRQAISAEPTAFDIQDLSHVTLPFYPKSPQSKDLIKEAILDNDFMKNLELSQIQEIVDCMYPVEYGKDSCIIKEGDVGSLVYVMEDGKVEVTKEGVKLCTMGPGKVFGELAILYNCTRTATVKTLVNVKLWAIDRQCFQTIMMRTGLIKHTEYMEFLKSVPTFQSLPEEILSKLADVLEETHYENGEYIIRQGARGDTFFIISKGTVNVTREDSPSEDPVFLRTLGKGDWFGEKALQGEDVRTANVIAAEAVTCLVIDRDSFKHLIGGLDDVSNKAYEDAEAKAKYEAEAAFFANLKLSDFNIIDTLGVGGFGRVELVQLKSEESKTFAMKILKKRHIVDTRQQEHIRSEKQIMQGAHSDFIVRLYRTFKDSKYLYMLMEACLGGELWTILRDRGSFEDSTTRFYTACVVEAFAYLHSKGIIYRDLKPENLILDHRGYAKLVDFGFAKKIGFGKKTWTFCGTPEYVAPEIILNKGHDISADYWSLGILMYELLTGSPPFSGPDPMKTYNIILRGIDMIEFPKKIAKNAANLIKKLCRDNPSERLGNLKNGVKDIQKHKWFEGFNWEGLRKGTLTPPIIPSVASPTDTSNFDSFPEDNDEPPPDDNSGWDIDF

Assays:
[1] = molecular target: human recombinant ROCK II (Homo sapiens, UniProt O75116); test: Determination of Rho kinase inhibition (ROCK II, Caliper peptide phosphorylation assay); conditions: respective form (salt or free base) as obtained in the examples, 60 min at 32° C., tested form: HCl
recombinant human PKA = recombinant human PKA (Homo sapiens, UniProt P17612); test: Determination of Protein Kinase A inhibition (selectivity); conditions: from IC50 values, tested form: HCl
[2] = molecular target: recombinant human PKG1-beta (Homo sapiens, UniProt Q13976); test: Determination of Protein Kinase G inhibition (selectivity); conditions: from IC50 values, tested form: HCl

| pIC50 [1] | Selectivity against PKA (recombinant human PKA) | Selectivity against PKG [2] | SMILES |
| --- | --- | --- | --- |
| +++++++ (8.0 ≦ pIC50) | >1000 fold | >300 fold | CCC(N)C1(C)CCC(Oc2cc3cc[nH]c(=O)c3cc2Cl)CC1 (single isomer, unassigned) [32] |
| +++++++ (8.0 ≦ pIC50) | >1000 fold | >1000 fold | CCC(N)C1(C)CCC(Oc2cc3cc[nH]c(=O)c3cc2Cl)CC1 (single isomer, unassigned) [33] |
